# Bioassay records deposited in PubChem BioAssay by National Center for Advancing Translational Sciences (NCATS).
# An excerpt weighted towards active compounds, which were near 2.1% of everything screened.
# miR-21 FLuc: miR-21 reporter, rising signal | HeLa miR-21 FLuc reporter, luciferase, 48 h | Potency, µM (top dose mostly 38.3 µM), inactives show at the top dose reporter change, positive = more light | 340,000 tested, under 10 active | AID 2288; active = well fitted rising curve with a large enough effect; inconclusive = small, poorly fitted or top-dose-only effect; inactive = no such curve, though single readings can be large or run the other way;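 further: % of control where 0% means no effect; miR-21 action dims this reporter so a rising signal means less miR-21 action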
#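 HeLa cells stably expressing CMV-driven firefly luciferase with a downstream miR-21 binding sequence, endogenously expressing miR-21, were treated with titrations (up to about 40uM final) for 48 hours at 37 degree Celsius. Luciferase luminescence was read after lysis.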
# TSG101-PTAP inh: blocks PTAP/TSG101 interaction to inhibit HIV-1 budding; Q99816; Fluorescence polarization, FITC-PTAP peptide / Tsg101 binding; 340,000 tested, under 10 active; Potency, µM (highest dose often 115 µM), for the others: at the highest dose activity change, negative = inhibition, actives largely listed as inhibitors; active = well fitted inhibition curve with a large enough effect in the main read-out, with a control signal flat, not every such curve was filed as active; inconclusive = small, poorly fitted or top-dose-only effect, or effect the other way, or a change in a side signal; inactive = no such curve, though single readings can be large or run the other way; also: potency is read from the fitted curve at half-maximal effect; % of control where 0% means no effect
#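 Fluorescence polarization binding of Tsg101 binding domain (10 uM final) to FITC-labeled PTAP peptide (50 nM final) in HEPES pH 7.5 buffer with NaCl, Tween 20, EDTA, TCEP. Compounds added before peptide; binding 20 min at RT.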
# A549 viability: kills or reduces viability of A549 cells in Nrf2 counter-screen; A549 ARE-Fluc cells, CellTiter-Fluor viability, 18-24 h; Potency, µM (highest dose often 46 µM), inactives show top-dose activity change, negative = cytotoxicity, usual class: inhibitors; 390,000 compounds, 0.16% hits; AID 504648; also: potency is read from the fitted curve at half-maximal effect; % is scaled to controls: 0 for no effect and ±100 for the full control effect
#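 Cytotoxicity counterscreen: CellTiter-Fluor fluorescence was measured in A549 ARE_Fluc cells after 18-24 h of compound exposure in a concentration series. The subsequent BugLite luminescent read reports ARE-luciferase activity.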
# Nrf2 activator: activates Nrf2 signaling; AREc32 ARE-luciferase reporter (MCF7-derived line), luminescence, 24 h; Potency, µM (series often up to 46.1 µM), for the others: at the top dose activation, actives largely listed as activators; 410,000 compounds, 0.31% hits; AID 624171; also: potency is read from the fitted curve at half-maximal effect; % of control where 0% means no effect; nearly all actives have a fitted effect of over 65% in size
#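 Cells of the AREc32 ARE-luciferase line are plated in OPTI-MEM containing 5% FBS and left overnight at 37 deg C. Compounds are pinned in, incubation continues 24 hr, and firefly luciferase signal is then measured.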
# Nrf2 inh: Nrf2 pathway inhibition; AID 504444; Potency, µM (top dose mostly 46 µM), inactives show top-dose activity change, negative = inhibition, most hits filed as inhibitors; A549 ARE-Fluc reporter, luciferase luminescence, 18-24 h; 360,000 compounds, 2.1% hits; also: potency is read from the fitted curve at half-maximal effect; % is scaled to controls: 0 for no effect and ±100 for the full control effect; nearly all actives have a fitted effect of over 60% in size
#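 A549 ARE_Fluc cells, 5000/well, 5% FBS OPTI-MEM; compounds in dose-response, 18-24 h at 37 °C/5% CO2; CellTiter-Fluor viability read (Ex 405/Em 525), then BugLite luciferase luminescence = Nrf2 activity.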
# Glioma ERSR ind: induces the endoplasmic reticulum stress response in human glioma cells. U87-MG GRP78 promoter luciferase reporter, 16 h. Potency, µM, for the others: top-dose activation, usual class: activators. 420,000 compounds, 0.02% hits. AID 602332; also: potency is read from the fitted curve at half-maximal effect; series mostly up to about 76 µM; % of control where 0% means no effect; nearly all actives have a fitted effect of over 35% in size
#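 Stably transfected U87-MG glioma cells carrying a GRP78-based luciferase sensor; 16 h compound incubation. Luminescence end-point read 10 min after Bright-Glo addition at room temperature.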
# Numbers without * were called inactive; ? = inconclusive; . = no result given; ! = not active in a repeat; [ ] = dose if it differs, or a comment. Unless noted, calls follow the shape of the dose curve; as a rule, active = well fitted curve in the direction sought with a large enough effect; inconclusive = small, poorly fitted or top-dose-only effect, or another doubt; inactive = no such curve, though single readings can be large; an effect the other way counts as inactive or inconclusive.
SMILES,miR-21 FLuc,TSG101-PTAP inh,A549 viability,Nrf2 activator,Nrf2 inh,Glioma ERSR ind
Cc1c(CCC(=O)NCCCCCC(=O)O)c(=O)oc2c(C)c3oc4c(c3cc12)CCCC4,-3%,-7%,2%,-1%,?,-8%
CCCCN(CCC#N)c1ccc(/C=C/c2ccnc3ccccc23)cc1,.,.,.,.,.,-3%
O=C(Cc1cccs1)OCC(=O)c1ccco1,-1%,-3%,-1%,-1%,23%,-4%
O=C(CC(Sc1ccccc1)c1cccs1)c1ccco1 (configuration not stated),-2%,-4%,-4%,18µM*,10%,-1%
O=C(Cn1cc(CN(Cc2ccccc2)Cc2ccccc2)nn1)Nc1cc(C(F)(F)F)ccc1Cl,.,.,-6%,.,18%,.
O=C(/C=C/c1ccccc1Cl)Nc1nc(-c2cccs2)ns1,-35%,.,-3%,6.3µM*,12%,2%
COc1ccc(C2CC(c3ccc(C)o3)=NN2C(C)=O)cc1 (configuration not stated),-74%,0%,14%,4%,?,5%
CCOc1cccc2c1OC(c1cc(OC)c(OC)c(OC)c1)N1N=C(c3ccc(C)o3)CC21 (configuration not stated),-46%,19%,-9%,13µM*,?,?
COC(=O)[C@@H]1CCCN1Cc1ccc2c(c1)CN(Cc1coc3ccc(C)cc3c1=O)CCO2,.,.,.,.,.,-5%
CN(C)S(=O)(=O)c1ccc(Cl)c(NC(=O)CSc2nc3c(cc2C#N)C(=O)CCC3)c1,-1%,0%,-12%,-1%,15µM*,-2%
Cc1ccc(NC(=O)CSc2nc3c(cc2C#N)C(=O)CCC3)cc1S(=O)(=O)N(C)C,2%,-3%,-3%,2%,?,-4%
CCS(=O)(=O)Nc1cc(C(=O)N2CCCN(C=O)CC2)c2c(c1)nc(-c1ccccc1)n2C,.,.,.,.,.,-3%
COCC(=O)Nc1cc(C(=O)N2CCN(c3ccccc3)C(=O)C2)cc2nc(-c3ccccc3)n(C)c12,.,.,.,.,.,-4%
CCOC(=O)CCC(=O)Nc1ncnc2c1C(c1ccccc1)c1c(ccc3ccccc13)O2 (configuration not stated),.,1%,?,0%,6.5µM*!,-6%
O=C(Cc1ccccc1)Nc1ncnc2c1C(c1ccccc1)c1c(ccc3ccccc13)O2 (configuration not stated),.,-2%,?,5%,5.2µM*,-4%
CCOC(=O)C1=C(N)Oc2ccc3ccccc3c2C1c1ccc(O)cc1 (configuration not stated),-6%,-8%,2%,14%,-9%,-4%
O=C(Nc1ncnc2c1C(c1ccccc1)c1c(ccc3ccccc13)O2)c1ccccc1 (configuration not stated),.,-5%,?,8%,?,-3%
CCCc1nc([N+](=O)[O-])c(S(=O)(=O)c2ccccc2)n1CC(C)C,?,-5%,-12%,5.6µM*,1%,-12%
CC(=O)N1N=C(c2ccc(Cl)cc2)CC1c1ccc([N+](=O)[O-])cc1 (configuration not stated),1%,-4%,-5%,0%[9.22 µM],?,-2%
CC1(O)CC(c2ccc(Cl)cc2)=NN1C(=O)c1ccc([N+](=O)[O-])cc1 (configuration not stated),2%,-3%,?,7%,18µM*,0%
COc1ccc(CN2CCCC(n3cc(C(=O)N4CCCCC4)nn3)C2)c(OC)c1C (configuration not stated),.,.,.,.,.,-4%
Cc1cc(C(=O)NCC2CCC3(CCN(Cc4ccc(F)cc4)CC3)O2)n(C)n1 (configuration not stated),.,.,.,.,.,-4%
Cc1cccc2cc(CNCCCN3CCCC3=O)c(N3CCN4CCCC4C3)nc12 (configuration not stated),.,.,.,.,.,-2%
O=[N+]([O-])c1ccc(N2CCN(c3ccc(O)cc3)CC2)cn1,11%,-2%,-27%,1%,21µM*,2%
Cc1ccccc1OCc1nnc(SCC(=O)Nc2ccc3nc(SCC(=O)NC(C)(C)C)sc3c2)n1C,6%,1%,-14%,3%,?,-2%
CC(C)(C)NC(=O)CSc1nc2ccc(NC(=O)CSc3nnc(N)s3)cc2s1,26%,0%,-5%,-1%,21µM*,-13%
c1csc(CNc2nc(CN3CCCC(c4nc5ccccc5o4)C3)nc3ccccc23)c1 (configuration not stated),.,.,.,.,.,-4%
N#Cc1cc2sc3nnc(-c4ccncc4)n3c2cc1C#N,13%,-3%,-26%,?,6.5µM*,-7%
N#Cc1cc2sc3nc4ccccc4n3c2cc1C#N,-1%,.,.,.,.,.
CCOC(=O)C1CCN(C(=O)Cn2ncc3c4ccccc4n(Cc4ccc(F)cc4)c3c2=O)CC1,?,.,-3%,4%,5%,40µM*
CCOC(=O)C1CCCN(C(=O)Cn2ncc3c4ccccc4n(Cc4ccccc4)c3c2=O)C1 (configuration not stated),?,.,2%,2%,14%,14%
CN1CCN(C(=O)Cn2ncc3c4ccccc4n(Cc4ccc(F)cc4)c3c2=O)CC1,9%,.,-4%,1%,16%,-2%
CCOC(=O)C1CCN(C(=O)Cn2ncc3c4ccccc4n(Cc4ccccc4)c3c2=O)CC1,16%,.,0%,0%,-3%,32µM*
CCN(CC)/[N+]([O-])=N/OCOC(=O)C(C)c1ccc(CC(C)C)cc1 (configuration not stated),.,.,.,.,.,-1%
C(/C=C/c1ccccn1)=C\c1ccccc1,.,-8%,-8%,13µM*,?,-5%
Cc1cccc(N2CCN(C(=O)COc3ccc4c(C)cc(=O)oc4c3C)CC2)c1C,-4%,-7%,-8%,0%,16µM*,17%
CCc1cc(=O)oc2cc(OCC(=O)N3CCc4ccccc43)ccc12,-4%,.,.,.,.,.
CCc1cc(=O)oc2c(C)c(OCC(=O)N3CCCc4ccccc43)ccc12,-1%,-4%,1%,2%,12µM*,-5%
CC(O)(COc1ccccc1)c1ccc2c(c1)CN(Cc1cccc3ncccc13)CCO2 (configuration not stated),.,.,.,.,.,-2%
CC(C)(C)c1ccc2c(c1)OC(C(=O)N/N=C\c1ccccn1)CO2 (configuration not stated),-4%,-3%,-10%,0%,16µM*,1%

# Quoted from the listing.
# For A549 viability, `CCOC(=O)C1CCN(C(=O)Cn2ncc3c4ccccc4n(Cc4ccccc4)c3c2=O)CC1` is entered as 0%
# For A549 viability, `CCOC(=O)C1CCN(C(=O)Cn2ncc3c4ccccc4n(Cc4ccc(F)cc4)c3c2=O)CC1` is entered as -3%

# Some of the entries above, reformatted.
structure	miR-21 FLuc	TSG101-PTAP inh	A549 viability	Nrf2 activator	Nrf2 inh	Glioma ERSR ind
CCc1cc(=O)oc2c(C)c(OCC(=O)N3CCCc4ccccc43)ccc12	-1%	-4%	1%	2%	12µM*	-5%
N#Cc1cc2sc3nnc(-c4ccncc4)n3c2cc1C#N	13%	-3%	-26%	?	6.5µM*	-7%
CC(C)(C)c1ccc2c(c1)OC(C(=O)N/N=C\c1ccccn1)CO2 (configuration not stated)	-4%	-3%	-10%	0%	16µM*	1%
N#Cc1cc2sc3nc4ccccc4n3c2cc1C#N	-1%	.	.	.	.	.
